Values of other authors as cited in paper PMC6409773 (Marine Drugs, 2019).

Amino acid sequences for entries named in this document (tags omitted).
UniProt P25103, whole entry: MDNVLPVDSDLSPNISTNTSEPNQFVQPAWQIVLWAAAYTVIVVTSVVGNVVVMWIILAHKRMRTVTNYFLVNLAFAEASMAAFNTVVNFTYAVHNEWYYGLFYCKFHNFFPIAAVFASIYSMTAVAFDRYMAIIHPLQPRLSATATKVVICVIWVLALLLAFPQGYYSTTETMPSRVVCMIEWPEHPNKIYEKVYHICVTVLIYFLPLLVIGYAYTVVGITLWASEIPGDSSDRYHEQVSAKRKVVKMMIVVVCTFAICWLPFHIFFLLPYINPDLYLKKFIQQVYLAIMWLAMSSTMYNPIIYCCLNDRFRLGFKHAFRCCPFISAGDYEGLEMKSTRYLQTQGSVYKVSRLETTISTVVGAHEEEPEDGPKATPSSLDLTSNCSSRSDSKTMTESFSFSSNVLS

Molecular target: NK1 (h) Tachykinin (Homo sapiens, UniProt P25103)
Set-up: method as in Eurofins Panlab
Details: as reported by Eurofins Panlab, ref Eurofins Panlab, read-out: Reference Agonists of Respective Target Receptors EC50; cited from earlier work

[Sar9, Met(O2)11]-Substance P [[Sar9, Met(O2)11]-SP]
EC50: 94 pM
